Consider one molecule from PubChem BioAssay AID485290 (National Center for Advancing Translational Sciences (NCATS), 2010).

Sequences of proteins named here, by UniProt entry; tags and fusion partners are left off.
UniProt Q9NUW8, whole entry, looked up: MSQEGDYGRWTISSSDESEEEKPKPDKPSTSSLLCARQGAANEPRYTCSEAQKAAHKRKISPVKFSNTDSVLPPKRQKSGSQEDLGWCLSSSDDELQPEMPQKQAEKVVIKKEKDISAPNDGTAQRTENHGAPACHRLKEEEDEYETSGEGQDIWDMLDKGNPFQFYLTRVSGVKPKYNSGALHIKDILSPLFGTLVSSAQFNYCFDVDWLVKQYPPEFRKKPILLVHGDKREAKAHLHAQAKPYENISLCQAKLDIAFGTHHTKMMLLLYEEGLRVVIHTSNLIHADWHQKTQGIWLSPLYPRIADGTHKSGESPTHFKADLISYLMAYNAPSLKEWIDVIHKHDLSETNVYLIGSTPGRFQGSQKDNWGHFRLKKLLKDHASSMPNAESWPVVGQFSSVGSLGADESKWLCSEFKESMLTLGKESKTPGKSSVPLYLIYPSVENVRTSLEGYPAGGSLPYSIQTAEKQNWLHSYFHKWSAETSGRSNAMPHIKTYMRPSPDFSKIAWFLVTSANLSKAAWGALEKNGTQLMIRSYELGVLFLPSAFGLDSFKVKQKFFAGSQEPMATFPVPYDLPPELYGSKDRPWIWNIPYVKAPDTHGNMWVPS

Where “and” joins values, the source holds several entries; their conditions need not be identical. Equal values may be shown once. This is a selection; strong and weak results do not stand in their true shares. Calls of active or inactive are those of the source. Calls come from the whole dose curve; as a rule, active = well fitted inhibition curve with a large enough effect; inconclusive = small, poorly fitted or top-dose-only effect; inactive = no such curve, though single readings can be large or run the other way.
Potency is the fitted concentration of half-maximal effect.

This test addresses Tyrosyl-DNA phosphodiesterase 1 (Homo sapiens) (UniProt Q9NUW8). Briefly: qHTS Assay for Inhibitors of Tyrosyl-DNA Phosphodiesterase (TDP1). Note: nearly all actives have a fitted effect of over 40% in size. The settings on record: recombinant TDP1, AlphaScreen DNA substrate cleavage. The text has this:
NIH Molecular Libraries Probe Production Network [MLPCN]
NIH Chemical Genomics Center [NCGC]
Assay Provider: Yves Pommier and Christophe Marchand, National Cancer Institute
Assay Title: qHTS Assay for Inhibitors of Tyrosyl-DNA Phosphodiesterase (TDP1); note: nearly all actives have a fitted effect of over 40% in size
Human tyrosyl-DNA phosphodiesterase I (Tdp1) is a rational anticancer target because this enzyme is involved in the repair of DNA lesions created by the trapping of human DNA topoisomerase I (Top1) following treatment by anticancer agents such as camptothecins. Recombinant Tdp1 was expressed and purified from E. coli in the laboratory (Anthony et al, Nucleic Acids Research, 2007, Vol. 35, 4474-4484). A Tdp1 DNA substrate bearing a 5' biotin and a 3' phospho-tyrosine was obtained by custom synthesis. This oligonucleotidic DNA substrate was subsequently coupled to a fluorescein isothiocyanate (FITC) group via the free amino group present on the phospho-tyrosine. Tdp1 was screened against the NCGC small molecule library using the AlphaScreen (AS) detection method in which a streptavidin donor AS bead is bound at the 5' end and an anti-FITC AS acceptor bead is bound at the 3' end of the DNA oligonucleotidic substrate. […]
3 ul of Tdp1 enzyme is dispensed to 1536-well Kalypsys black solid bottom plates. […] The detection is then performed on a PerkinElmer Envision reader.
Take `O=C(O)C1=CC(=C(c2ccc(O)c(C(=O)O)c2)c2ccc(O)c(C(=O)O)c2)C=CC1=O`: the Potency was active: 31.6 nM and active: 17.8 nM.
